Test results from ChEMBL document CHEMBL1152805, “Dual inhibitors of phosphodiesterase-4 and serotonin reuptake” (J Med Chem, 2009).

Chains of the proteins cited; added tags and fusions are not shown.
UniProt P31645, whole entry: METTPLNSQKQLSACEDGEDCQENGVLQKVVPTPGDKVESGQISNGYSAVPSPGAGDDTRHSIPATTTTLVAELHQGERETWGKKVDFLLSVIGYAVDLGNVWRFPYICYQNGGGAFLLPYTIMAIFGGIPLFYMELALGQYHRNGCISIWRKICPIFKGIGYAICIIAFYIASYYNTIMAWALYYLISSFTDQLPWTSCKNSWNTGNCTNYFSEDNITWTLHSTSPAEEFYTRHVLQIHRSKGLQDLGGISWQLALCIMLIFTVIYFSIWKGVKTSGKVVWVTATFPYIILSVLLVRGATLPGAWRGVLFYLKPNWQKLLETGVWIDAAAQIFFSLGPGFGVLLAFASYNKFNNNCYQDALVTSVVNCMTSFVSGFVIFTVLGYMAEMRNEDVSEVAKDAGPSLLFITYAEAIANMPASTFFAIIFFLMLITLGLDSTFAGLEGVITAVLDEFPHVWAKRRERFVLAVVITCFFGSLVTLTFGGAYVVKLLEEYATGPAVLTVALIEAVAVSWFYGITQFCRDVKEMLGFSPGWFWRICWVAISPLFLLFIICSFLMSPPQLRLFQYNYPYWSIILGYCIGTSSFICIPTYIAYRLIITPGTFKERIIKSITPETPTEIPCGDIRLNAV

Legend:
[1] = target: Sodium-dependent serotonin transporter (Homo sapiens, UniProt P31645); assay type: cell-based, HEK293
Liver microsomes = assay: Metabolic stability in rat liver microsomes assessed as half life at 40 uM after 60 mins by HPLC in presence of NADPH; assay type: ADME, Microsome; details: 1 h

SMILES	IC50 [1]	t1/2 (Liver microsomes)
COc1ccc(F)c(CCCC2CCC(CCNCCCCCN3N=C(c4ccc(OC)c(OC)c4)[C@H]4CC=CC[C@H]4C3=O)O2)c1 (mixture of isomers)	194 nM	
COc1ccc(F)cc1CCC1CCC(CCN)O1 (configuration not stated)		1.772 h
